Compound activity: PubChem, National Center for Advancing Translational Sciences (NCATS)
In the library only some 3.7% were active in any assay of this set; here they are far more common.
p53 reactivation = restores transcriptional activity of mutant p53; H1299 p53-A138V BP100-luciferase reporter, luminescence, 24 h; Potency, µM (titrated, usually from 92.2 µM), for the others: top-dose activity change, positive = activation, actives largely listed as activators; 0.063% of 320,000 active; AID 504706; also: potency is read from the fitted curve at half-maximal effect; % of control where 0% means no effect; nearly all actives have a fitted effect of over 45% in size
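p53-null H1299 cells stably carrying temperature-sensitive p53-A138V and a BP100-luciferase reporter were pinned with compounds (4-point, 1:5 series) and held 24 hrs at 37 deg C. Luminescence was read 10 min after detection reagent.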
Nrf2 block = Nrf2 pathway inhibition. A549 ARE-Fluc reporter, luciferase luminescence, 18-24 h. Potency, µM (top dose mostly 46 µM), inactives show at the highest dose activity change, negative = inhibition, hits mostly inhibitors. 2.1% of 360,000 active. AID 504444; also: potency is read from the fitted curve at half-maximal effect; % is scaled to controls: 0 for no effect and ±100 for the full control effect; nearly all actives have a fitted effect of over 60% in size
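Reporter: ARE-Fluc in A549. Exposure: 18-24 h, 37 °C, 5% CO2, 5% FBS OPTI-MEM. Readouts: fluorescent cytotoxicity (CellTiter-Fluor), then luminescent Nrf2 signal after BugLite.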
A549 tox = kills or reduces viability of A549 cells in Nrf2 counter-screen; A549 ARE-Fluc cells, CellTiter-Fluor viability, 18-24 h; Potency, µM (top dose mostly 46 µM), inactives show at the top dose activity change, negative = cytotoxicity, most hits filed as inhibitors; 0.16% of 390,000 active; AID 504648; also: potency is read from the fitted curve at half-maximal effect; % is scaled to controls: 0 for no effect and ±100 for the full control effect
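A549 ARE_Fluc cells in 5% FBS OPTI-MEM were exposed to compounds in concentration-response for 18-24 h at 37 deg C. Viability was read by CellTiter-Fluor fluorescence (Ex 405/Em 525) after 30 min, before the luciferase read.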
Nrf2 activator = activators of Nrf2 (ARE) signaling; 0.31% of 410,000 active; AID 624171; Potency, µM (doses to about 46.1 µM), for the others: at the highest dose activation, usual class: activators; AREc32 ARE-luciferase reporter (MCF7-derived line), luminescence, 24 h; also: potency is read from the fitted curve at half-maximal effect; % of control where 0% means no effect; nearly all actives have a fitted effect of over 65% in size
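For detection, Steady-Glo was added and plates sat 30 min at RT; before that, AREc32_Fluc cells grown overnight in OPTI-MEM/5% FBS had been treated with 23 nL compound for 24 hr at 37 deg C.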
miR-21 reporter = raises the signal of a miR-21 reporter; HeLa miR-21 FLuc reporter, luciferase, 48 h; Potency, µM (top dose mostly 38.3 µM), for inactives: at the highest dose reporter change, positive = more light; AID 2288; 340,000 tested, under 10 active; active = well fitted rising curve with a large enough effect; inconclusive = small, poorly fitted or top-dose-only effect; inactive = no such curve, though single readings can be large or run the other way;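 note: % of control where 0% means no effect; miR-21 action dims this reporter so a rising signal means less miR-21 action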
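Compounds were titrated across several concentrations (up to approximately 40 uM) and incubated 48 hours with HeLa miR-21-FLuc reporter cells (miR-21 target sequence downstream of FLuc, endogenous miR-21). Readout was firefly luciferase luminescence after lytic detection reagent.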
ClpP mod = qHTS Assay for Activators of ClpP. purified B. subtilis ClpP, FRET peptide cleavage, 20 min. Potency, µM (titrated, usually from 57.5 µM), for the others: at the top dose activity change, negative = active. AID 651965, 2013. 1.9% of 340,000 active; active = well fitted falling curve with a large enough effect; inconclusive = small, poorly fitted or top-dose-only effect; inactive = no such curve, though single readings can be large or run the other way; also: potency is read from the fitted curve at half-maximal effect; the source files actives as falling curves though it sought activators and does not explain the sign; nearly all actives have a fitted effect of over 65% in size
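Buffer: 100 mM Tris/HCl pH8, 100 mM KCl, 0.05% low protease BSA, 2.5% glycerol, 0.01% Tween-20. ClpP 10 microg/mL final; 20 min RT; delta FRET normalized to ADEP and DMSO controls.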
An asterisk follows results filed as active; ? = inconclusive; nt = not tested or not shown; ! = a repeat was not active; [ ] = another dose, or the depositor's remark. Unless noted, calls follow the shape of the dose curve; as a rule, active = well fitted curve in the direction sought with a large enough effect; inconclusive = small, poorly fitted or top-dose-only effect, or another doubt; inactive = no such curve, though single readings can be large; an effect the other way counts as inactive or inconclusive.

SMILES	p53 reactivation	Nrf2 block	A549 tox	Nrf2 activator	miR-21 reporter	ClpP mod
CN1CCN(CCCN2c3ccccc3Sc3ccc(Cl)cc32)CC1	-7%	8.2µM*!	18µM*!	-4%	?	-5%
COc1cccc(-n2nnnc2S(C)(=O)=O)c1	-10%	10µM*	?	?	?	-3%
Cc1cccc(-n2nnnc2S(C)(=O)=O)c1	nt	nt	?	-4%	-1%	0%
C=CCNc1nc(NCc2cccc(OC)c2)c2sc(-c3ccccc3)cc2n1	nt	nt	nt	0%	nt	20µM*
Cn1c(NCc2ccncc2)nc2cc(-c3ccsc3)sc2c1=O	nt	nt	nt	35%	nt	-22%
Cc1ccc(CNc2nc3cc(-c4ccccc4)sc3c(=O)n2C)c(C)c1	nt	nt	nt	0%	nt	28µM*
COCCNc1nc(NCCOC)c2sc(-c3ccccc3)cc2n1	nt	nt	nt	5%	nt	-9%
COc1cccc(CNc2nc3cc(-c4cccc(Cl)c4)sc3c(=O)n2C)c1	nt	nt	nt	?	nt	20µM*
Cn1c(NCC2CCCCC2)nc2cc(-c3ccsc3)sc2c1=O	nt	nt	nt	2µM*	nt	?
COc1ccc(-c2cc3nc(NCc4ccc(C)cc4C)n(C)c(=O)c3s2)cc1OC	nt	nt	nt	0%	nt	?
COc1ccc(OC)c(/C=C2\C=Cc3ccccc32)c1	nt	nt	nt	nt	nt	-16%
CC1CCCCN1CCCNC(=O)c1cc(Sc2cccc(Cl)c2)nc2ccccc12 (stereo not given)	nt	nt	8%	1%	-4%	-3%
O=C(NC1CCCC1)c1cccc(Cn2cc([N+](=O)[O-])cn2)c1	-7%	0%	6%	3%	-1%	16µM*
CCCN1C2CCCC1CC(NC(=O)c1cccc([N+](=O)[O-])c1)C2 (stereo not given)	-1%	4%	7%	0%	0%	28µM*
CCc1cccc(CC)c1NC(=S)NCCc1c(C)[nH]c2ccc(C)cc12	8%	16µM*	-17%	-2%	22%	-7%

Grouped by structure: the compounds so far with a halogen (3)
SMILES	p53 reactivation	Nrf2 block	A549 tox	Nrf2 activator	miR-21 reporter	ClpP mod
CN1CCN(CCCN2c3ccccc3Sc3ccc(Cl)cc32)CC1	-7%	8.2µM*!	18µM*!	-4%	?	-5%
COc1cccc(CNc2nc3cc(-c4cccc(Cl)c4)sc3c(=O)n2C)c1	nt	nt	nt	?	nt	20µM*
CC1CCCCN1CCCNC(=O)c1cc(Sc2cccc(Cl)c2)nc2ccccc12 (stereo not given)	nt	nt	8%	1%	-4%	-3%

Next part
SMILES	p53 reactivation	Nrf2 block	A549 tox	Nrf2 activator	miR-21 reporter	ClpP mod
CCc1cccc(C)c1NC(=S)NCCc1c(C)[nH]c2ccc(C)cc12	1%	?	-11%	-2%	22%	1%
Cc1ccccc1N(C)C1=N[S+](=O)([O-])c2ccccc21	nt	-2%	1%	nt	nt	nt
CCSc1nc2ccccc2n1C(=O)/C=C/c1ccc(OC)c(OC)c1	-16%	?	?	?	-3%	14µM*
O=S1(=O)C=C(N2CCCCC2)c2ccccc21	0%	1%	-4%	13µM*	-4%	0%
O=C1c2ccccc2C(=O)c2cc(N3CCCCC3)ccc21	nt	?	-16%	6%	nt	-19%
CCOc1ccc(C(=O)c2cn(Cc3ccc(Cl)cc3)c3cc(OC)c(OC)cc3c2=O)cc1	nt	?	15µM*	0%	-5%	-2%
O=C(c1ccc2c(c1)OCO2)c1cn(Cc2ccc(Cl)cc2)c2ccc(F)cc2c1=O	nt	?	-28%	3%	19%	-6%
Cc1ccc2c(c1)c(=O)c(C(=O)c1ccc3c(c1)OCO3)cn2Cc1ccc(Cl)cc1	nt	23µM*	-14%	3%	26%	-6%
CC1CCc2[nH]c3ccc(C(=O)N(C)CC(=O)Nc4ccc(F)cc4)cc3c2C1 (stereo not given)	-21%	-29%	-15%	2%	-6%	-2%
CCN(CC(=O)Nc1ccccc1C(F)(F)F)C(=O)c1ccc2[nH]c3c(c2c1)CC(C)CC3 (stereo not given)	-6%	26µM*	?	2%	nt	-8%
CC(C)(C)c1ccc(C(=O)N2CCCC(c3nc4c(nnn4Cc4cccc(F)c4)c(=O)[nH]3)C2)cc1 (stereo not given)	nt	?	-5%	1%	7%	1%
CCOCCCn1c(C)nc2c(c1=O)c1nc3ccccc3nc1n2CCC1=CCCCC1	-2%	13µM*	?	0%	-5%	?
Cc1nc2c(c(=O)n1CCC1=CCCCC1)c1nc3ccccc3nc1n2/N=C/c1ccccc1	8%	?	nt	1%	-8%	-19%
CCN(CC)S(=O)(=O)c1cc(NC(=O)C(C)N(C)CC(=O)Nc2c(C)cccc2C)ccc1C (stereo not given)	-5%	16µM*	?	3%	-3%	-8%
CC(C)(C)OC(=O)NCCCCCc1cn([C@@H](CO)C(=O)NCCCCCCCCCCC(=O)N2CCN(C(=O)OC(C)(C)C)CC2)nn1	-18%	7.3µM*	?	-3%	nt	1%

Some of the entries above, set out differently:
SMILES | p53 reactivation | Nrf2 block | A549 tox | Nrf2 activator | miR-21 reporter | ClpP mod
CC1CCc2[nH]c3ccc(C(=O)N(C)CC(=O)Nc4ccc(F)cc4)cc3c2C1 (stereo not given) | -21% | -29% | -15% | 2% | -6% | -2%
CCN(CC(=O)Nc1ccccc1C(F)(F)F)C(=O)c1ccc2[nH]c3c(c2c1)CC(C)CC3 (stereo not given) | -6% | 26µM* | ? | 2% | nt | -8%
CC(C)(C)c1ccc(C(=O)N2CCCC(c3nc4c(nnn4Cc4cccc(F)c4)c(=O)[nH]3)C2)cc1 (stereo not given) | nt | ? | -5% | 1% | 7% | 1%

Further structures follow:
SMILES	p53 reactivation	Nrf2 block	A549 tox	Nrf2 activator	miR-21 reporter	ClpP mod
CC(C)(C)OC(=O)CC[C@@H](C(=O)NCCCCCCCCCCC(=O)N1CCN(C(=O)OC(C)(C)C)CC1)n1cc(CCCCCNC(=O)OC(C)(C)C)nn1	6%	?	0%	5%	nt	-5%
CCCCOn1c(C)c(C(=O)OCC)c2c3no[n+]([O-])c3ccc21	-4%	?	-5%	-1%	0%	0%
CCCCOn1c(C)c(C(=O)OCC)c2c3nonc3ccc21	nt	-22%	2%	1%	nt	18µM*
CC1CCCN(S(=O)(=O)c2ccc(C(=O)Nc3ccccc3-c3nc4ccccc4[nH]3)cc2)C1 (stereo not given)	-9%	4%	2%	0%	-5%	?
CC1CCN(S(=O)(=O)c2ccc(C(=O)Nc3ccccc3-c3nc4ccccc4[nH]3)cc2)CC1	10%	26µM*	-9%	0%	-1%	76%
COCCCn1c(-c2ccc(Cl)cc2)n[nH]c1=S	-5%	11%	7%	0%	0%	-10%
COCCCn1c(-c2ccccc2Cl)n[nH]c1=S	-2%	-20%	-8%	0%	-3%	25µM*
COc1ccc(-c2oc3ncn(CCN4CCOCC4)c(=N)c3c2-c2ccc(OC)cc2)cc1	-17%	16µM*	-23%	0%	14%	2%
COc1ccc(-c2oc3ncnc(NCCN4CCOCC4)c3c2-c2ccc(OC)cc2)cc1	-9%	-14%	1%	0%	-33%	?
O=C(Nc1ccc2c(c1)nc1n2CCN(Cc2ccccc2)C1)NC1CCCCC1	0%	?	5%[1.84 µM]	0%	-9%	28µM*
O=S(=O)(Nc1ccc2c(c1)nc1n2CCN(Cc2ccccc2)C1)c1ccc(Cl)cc1	1%	13µM*	?	-1%	3%	-18%
Cc1ccc(S(=O)(=O)CCC(=O)N(CCCN2CCOCC2)c2nc3ccccc3s2)cc1	22%	?	13%	13µM*	nt	2%
CNc1c(NC(=O)c2cc(OC)cc(OC)c2)c(=O)oc2ccccc12	nt	14%	-2%	1%	11%	-4%
